Measured values published in ChEMBL document CHEMBL1154650, “Synthesis and evaluation of D-gluco-pyranocyclopropyl amines as potential glucosidase inhibitors” (Bioorg Med Chem Lett, 2009).

Biological target: Lysosomal alpha-glucosidase (Homo sapiens, UniProt P10253)
Assay: Inhibition of human lysosomal alpha glucosidase

IC50: 400 nM
Compound: OC[C@@H]1[C@@H](O)[C@H](O)[C@@H](O)CN1CCCCCOCC12CC3CC(CC(C3)C1)C2
